{"source": "patent US9730928B2", "about": "“Trizol-1-OL analogs anti-retroviral latency drugs” (priority 2013, dated 2017)", "assay_type_in_all_cases": "cell-based, human", "key": {"STAT5": {"tested_on": "STAT5", "experiment": "STAT5 phosphorylation by flow cytometry in cultured TCM", "description": "The levels of STAT5 phosphorylation were analyzed by flow cytometry after incubating cultured TCM with HOAt, IL-2, or a combination of both, during a 24 h period (FIG. 4B). STAT5 phosphorylation could be only slightly detected in the absence of either IL-2 or HOAt at 30 min."}, "JAK1": {"tested_on": "JAK1", "experiment": "Phosphorylation of JAK1", "settings": "IL-2 alone or in the presence of HOAt", "from_the_text": "(§1) Engagement of γc-cytokines to its receptors leads to a signaling cascade initiated by the phosphorylation and activation of the janus kinases JAK1 and JAK3. These kinases then phosphorylate and activate the transcription factors STATs."}, "JAK3": {"tested_on": "JAK3", "experiment": "Phosphorylation of JAK3", "settings": "IL-2 alone or in the presence of HOAt", "from_the_text": "as §1"}}, "data": [{"substance": "IL-2: γc-cytokine required for survival of the cells", "values": [{"measurement": "STAT5 phosphorylation at 30 min, agent alone", "setting": "STAT5; 30 min", "value": "dramatically increase the levels of STAT5 phosphorylation"}, {"measurement": "STAT5 phosphorylation after 24 hrs, agent alone", "setting": "STAT5; 24 hrs", "value": "decreased to basal levels"}, {"measurement": "phosphorylation of JAK1", "setting": "JAK1", "value": "increases phosphorylation"}, {"measurement": "phosphorylation of JAK3", "setting": "JAK3", "value": "increases phosphorylation"}]}]}
